# Yeast mating assay 2: variants of the scFv Ab-91

Source: Engelhart et al. 2022 (doi:10.1038/s41597-022-01779-4), MIT Lincoln Laboratory and A-Alpha Bio; data file from the FLAb repository.

All variants were tested on one target, the spike HR2 peptide PDVDLGDISGINAS (SARS-CoV-2).

Parent: Ab-91, a human scFv built as VL, the linker GGGGSGGGGSGGGGS, VH. Only the CDRs of the heavy chain vary.
VL: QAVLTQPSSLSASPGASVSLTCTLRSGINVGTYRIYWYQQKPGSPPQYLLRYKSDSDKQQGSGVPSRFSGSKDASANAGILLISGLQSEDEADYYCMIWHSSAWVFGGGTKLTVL
VH: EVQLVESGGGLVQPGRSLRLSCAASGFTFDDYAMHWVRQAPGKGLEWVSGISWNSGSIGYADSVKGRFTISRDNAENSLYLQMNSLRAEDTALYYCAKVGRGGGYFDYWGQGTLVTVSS

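Variants in AAYL51 differ from the parent at up to three CDR positions; double and triple changes were sampled at random. In AlphaSeq, yeast of one mating type display the scFv and yeast of the other type display the target. Binding brings cells together so that they mate, and sequencing counts the barcode pairs among the diploids. Scores were corrected for input abundance and mapped to Kd with protein pairs of known affinity run in the same pool. Mating was done three times.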

Each variant is given by its three heavy chain CDRs, as the data file delimits them; those of the parent are GFTFDDYAMH, GISWNSGSIGYADSVK, VGRGGGYFDY.
All variants listed here change K65 of the VH, counted from its first residue.
Kd is apparent (estimated from mating counts) and averaged on the log scale over replicates with a signal. Smaller is tighter.
"no signal" means that the variant was in the library but no mating with the target was seen in any replicate; the authors take this as a sign of poor binding, and no number exists.

| CDR-H1 | CDR-H2 | CDR-H3 | Kd (apparent) | replicates with signal | empty controls |
|---|---|---|---|---|---|
| GFSFDDYAMH | HISWNSGSIGYADSVA | VGRGGGYFDY | 8.9 µM | 3/3 | 1/9 |
| GFTYDTYAMH | GISWNSGSIGYADSVV | VGRGGGYFDY | 3.1 µM | 2/3 | 0/9 |
| GFTFDDDAMH | GISWNSGSIGYADSVG | KGRGGGYFDY | no signal | 0/3 | 0/9 |
| GFTFDDYAMH | RISWNWGSIGYADSVI | VGRGGGYFDY | no signal | 0/3 | 0/9 |
| GFTFDDYAMH | GISFNSGSIGYADSVC | VGFGGGYFDY | 2.9 µM | 3/3 | 2/9 |
| GFTFDDYAQH | GISWNSGSIGYADSVI | VGRNGGYFDY | 170 µM | 3/3 | 7/9 |
| GFTFDDYAMH | GISWNSGSIGYAESVA | VGRHGGYFDY | no signal | 0/3 | 2/9 |
| GFTFDDYAMH | GISMNSGSIGYADSVI | VGRGGGYFDY | 11 nM | 3/3 | 3/9 |
| GFTFDDYAMH | GISWNSGSIGYADSVT | VGRGGGYFDY | 45 nM | 3/3 | 0/9 |
| GFTFDDYAMH | GISWNSGSIFYADSVL | VGRGGGYFDY | no signal | 0/3 | 1/9 |
| GFTFDDYAMH | GISWNSGSIGYADSVF | EGRGGGYFDY | 73 µM | 1/3 | 2/9 |
| GFTFDDYAVH | GISWNSGSIGYEDSVA | VGRGGGYFDY | no signal | 0/3 | 0/9 |
| WFTFDDYAMH | GISWNSGSIGYAISVA | VGRGGGYFDY | no signal | 0/3 | 2/9 |
| GFTFDDYKMH | GISWNSGSIGYRDSVD | VGRGGGYFDY | 260 µM | 2/3 | 6/9 |
| GFTFDDYAMH | GISWNSGSIGYADSVC | VGRGGGYFDY | 1.9 µM | 1/3 | 0/9 |
| GFTFDDYAMH | GISWNSGSIGYADSLP | VGRGGGYIDY | no signal | 0/3 | 0/9 |
| GFTFDDIAMH | GISWNVGSIGYADSVR | VGRGGGYFDY | 7.7 µM | 1/3 | 1/9 |
| GFTFDDYAMH | GISRNSGSIVYADSVH | VGRGGGYFDY | 7.3 µM | 1/3 | 2/9 |
| GFTFDDYVMH | GISWNSGSIGYADSVL | VGRGGGYFDN | 520 µM | 1/3 | 0/9 |
| GFTFADYAMD | GISWNSGSIGYADSVS | VGRGGGYFDY | no signal | 0/3 | 0/9 |
| GFTFDDYAMH | GISWNSGSIGYANSVG | VGRGGGYDDY | no signal | 0/3 | 0/9 |
| GFTFDDYAMH | GISWNSPSAGYADSVS | VGRGGGYFDY | 66 µM | 3/3 | 3/9 |
| GQTFDDVAMH | GISWNSGSIGYADSVD | VGRGGGYFDY | 11 µM | 3/3 | 0/9 |
| GITFDDYAMH | GISWNSGIIGYADSVT | VGRGGGYFDY | 1.0 µM | 1/3 | 0/9 |
| HFTFDDYAMH | GISWNSGSWGYADSVQ | VGRGGGYFDY | 300 µM | 2/3 | 3/9 |
| GFTFDDYAMH | GISWNSGSIGYADSVM | VGRGGGYFDV | 10 nM | 3/3 | 0/9 |
| GFNFDDYAMH | GISWNSGSIQYADSVY | VGRGGGYFDY | no signal | 0/3 | 0/9 |
| GFTFDDYLMH | GISWNSGSIGYADCVV | VGRGGGYFDY | no signal | 0/3 | 2/9 |
| GFTFDDYAMH | GISWNSGSIGYADSVG | GGRGGGWFDY | 67 µM | 1/3 | 1/9 |
| GSTFDDYAMH | GISWNSGSIGYADSVT | WGRGGGYFDY | no signal | 0/3 | 0/9 |
| GFTFDLYAMH | GISWNSGSIGYADSVA | VGRGGGLFDY | no signal | 0/3 | 0/9 |
| GFTFDDYAMH | GCSWNSGSIGYADSVE | VTRGGGYFDY | no signal | 0/3 | 4/9 |
| GFTFDDYAMH | GISWQSGTIGYADSVW | VGRGGGYFDY | no signal | 0/3 | 0/9 |
| GFTFDTYAMH | GISWNSGSIGYADSVQ | VGRGGGYYDY | 320 nM | 3/3 | 1/9 |
| GFTFDDYAMH | GINWNEGSIGYADSVA | VGRGGGYFDY | 96 µM | 3/3 | 7/9 |
| GFTFDDYAQH | GISWNSGSIGYADSVE | VGRGGCYFDY | no signal | 0/3 | 1/9 |
| GFWFDDYAMH | GISWNSGSIGYADWVG | VGRGGGYFDY | 100 nM | 3/3 | 5/9 |
| GFTFDDYAMH | GIQWHSGSIGYADSVW | VGRGGGYFDY | 59 µM | 2/3 | 4/9 |
| GFTFDDYAMH | GMSWNSSSIGYADSVN | VGRGGGYFDY | 6.0 µM | 1/3 | 0/9 |
| GFTFDDYAMH | AIPWNSGSIGYADSVW | VGRGGGYFDY | no signal | 0/3 | 0/9 |
| DFTFDDYAMH | GISWLSGSIGYADSVY | VGRGGGYFDY | 57 µM | 1/3 | 1/9 |
| GFTFDDYAMH | GISWNSGSIGYADSVL | VGIGGGYIDY | no signal | 0/3 | 0/9 |
| GFTFDDYAMH | GISWNRGSINYADSVD | VGRGGGYFDY | no signal | 0/3 | 2/9 |
| GFTFDDYAMH | GISWNSGSIGYADGVR | VERGGGYFDY | 1.2 mM | 2/3 | 5/9 |
| GFTFDVYAMH | GISWNSGSIGYADSVA | VGRGGGYFDI | 200 µM | 1/3 | 3/9 |
| GFCFDDYAMH | GISWNSGSIGYADSVF | VGRDGGYFDY | 1.8 µM | 3/3 | 1/9 |
| GFTFDDYAMH | GISWNSGSIGYASSVR | EGRGGGYFDY | 76 µM | 1/3 | 3/9 |
| GFTFDDYAWH | GISWNSGSIGYADSVG | VGRGGGYFDQ | 34 µM | 1/3 | 0/9 |
| GFTFDDYAMH | GISQNSGSIGYADSDN | VGRGGGYFDY | 250 µM | 1/3 | 0/9 |
| TFTFDDYAMS | GISWNSGSIGYADSVG | VGRGGGYFDY | 160 µM | 2/3 | 5/9 |
| GFTFDDYAMH | GISWNSGSIGYADSCN | VGRGGGYFDY | 1.5 µM | 3/3 | 5/9 |
| GFTFDDYAMH | GISWNSGSIGYAYSVD | VMRGGGYFDY | no signal | 0/3 | 0/9 |
| GFTFDDYKMH | GISANSGSIGYADSVD | VGRGGGYFDY | no signal | 0/3 | 0/9 |
| GFTFDDYAMH | GISWNSHSIGYADSVY | FGRGGGYFDY | 860 µM | 2/3 | 4/9 |
| GFTFDDYAMH | GIKWNSGSIGAADSVH | VGRGGGYFDY | 190 µM | 2/3 | 2/9 |
| GFTFQDYAMH | GISWNSGSIGYADSVW | VGRGGGYFDY | 170 nM | 3/3 | 0/9 |
| GFTFDDYAML | GISWNSGSIGYADSVA | VGRGGGDFDY | 450 nM | 3/3 | 2/9 |
| GFTFDDYAMH | TISWNSGSWGYADSVL | VGRGGGYFDY | 260 µM | 1/3 | 1/9 |
| GFTFDRYAMH | GISMNSGSIGYADSVH | VGRGGGYFDY | no signal | 0/3 | 1/9 |
| GFTFDDDAMH | GISWNSGSIGYALSVA | VGRGGGYFDY | 20 µM | 1/3 | 1/9 |

A selection of 8 entries from above:

| CDR-H1 | CDR-H2 | CDR-H3 | Kd (apparent) | replicates with signal | empty controls |
|---|---|---|---|---|---|
| GFTFDDYAQH | GISWNSGSIGYADSVI | VGRNGGYFDY | 170 µM | 3/3 | 7/9 |
| GFTFDDYAMH | GISWNSHSIGYADSVY | FGRGGGYFDY | 860 µM | 2/3 | 4/9 |
| GFTFDDYAWH | GISWNSGSIGYADSVG | VGRGGGYFDQ | 34 µM | 1/3 | 0/9 |
| WFTFDDYAMH | GISWNSGSIGYAISVA | VGRGGGYFDY | no signal | 0/3 | 2/9 |
| GFTFDDYAVH | GISWNSGSIGYEDSVA | VGRGGGYFDY | no signal | 0/3 | 0/9 |
| GFTFDDYAMH | GISWNSGSIFYADSVL | VGRGGGYFDY | no signal | 0/3 | 1/9 |
| GFTFDDYLMH | GISWNSGSIGYADCVV | VGRGGGYFDY | no signal | 0/3 | 2/9 |
| GQTFDDVAMH | GISWNSGSIGYADSVD | VGRGGGYFDY | 11 µM | 3/3 | 0/9 |

For reference, the parent read 72 nM as the reference entry and 7.5 nM as a member of this library.
Nonspecific signal, from three strains lacking the peptide, appeared in 21% of pairings of library AAYL51, centred on 34 µM (5% of these signals below 1.8 µM); values are not corrected for it. Also given: how often the same scFv was detected with the empty control strains.